In ChEMBL document CHEMBL5550209, “Hit-to-Lead Optimization of Heterocyclic Carbonyloxycarboximidamides as Selective Antagonists at Human Adenosine A3 Receptor” (J Med Chem, 2024):

How the values were obtained:
[1] = in vitro; conditions: human, Caco-2
[2] = in vitro; conditions: human, Caco-2; remark: listed apart in the source
[3] = in vitro; conditions: human, plasma
[4] = in vitro; conditions: human, liver microsomes

| Papp A→B [1] [×10⁻⁶ cm/s] | Papp B→A [2] [×10⁻⁶ cm/s] | fraction unbound at 24 h, 10 µM [3] | microsomal CLint at 1 h, 0.1 µM [4] [µL/min/mg] | Structure (SMILES) |
| --- | --- | --- | --- | --- |
| 7.2 | 0.6 | 0.01 | – | Cc1onc(-c2c(Cl)cccc2Cl)c1C(=O)ON=C(N)c1ccc(Br)cn1 |
| – | – | – | 287 | Cc1nc(C(=N)NOC(=O)c2c(-c3c(Cl)cccc3Cl)noc2C)cs1 |
